Screens (PubChem)
Yeast UUG start: modulators of yeast start codon fidelity, primary screen, whole organism, S. cerevisiae, single point, plate reader | AID 602363, 2012 | actives 0.13% (n = 350,000) | activity score, % at 18.7 µM | S. cerevisiae UUG-firefly luciferase reporter, luminescence/redox ratio;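 active means replicate mean at a twofold rise or more, about +100% in these data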;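 further: firefly luciferase made from a UUG start codon reports start codon fidelity; reporter light over untreated wells divided by growth signal over untreated wells; some hits fall short of that in this replicate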
MITF TRPM1 HTS: increases MITF-driven TRPM1 promoter luciferase signal | SK-MEL-5 TRPM1-promoter luciferase, 24 h; % of positive control, neutral wells = 0 | hit rate 0.75% among 300,000 | activation, % at 12.5 µM;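 active means mean activation of at least 80% with every replicate also reaching 80%; inconclusive means mean reaches 80% but some replicate falls short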;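 further: 0% = neutral control wells and 100% = parthenolide positive control wells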
miR122 inh: inhibitors of miR-122 in Huh7 cells; Huh7 miR-122 Renilla luciferase sensor, 48 h; neutral wells = 0, positive control = 100; hit rate 0.3% among 340,000; activation (reporter increase), % at 12.5 µM;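 active means mean replicate activation score at least 90 and every replicate individually at or above 90; inconclusive means only one of the two criteria met; inactive means neither criterion met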;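 further: higher luciferase means less miR-122 activity so hits act as miR-122 inhibitors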
esBAF inh: SWI/SNF esBAF complex inhibition; mouse ES cells, Bmi1-luciferase knock-in reporter, 24 h; 100% = twice the neutral-well signal; reporter increase, % at 12.5 µM; hit rate 2% among 350,000; AID 602393; in the data active means activation above about 40%; inconclusive means no clear call, values can overlap the other calls;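 further: 0% = median of the plate's neutral control wells and 100% = double that signal; a rise in the Bmi1 reporter signal indicates esBAF inhibition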
Wnt bcat act: activates Wnt/beta-catenin signaling in a reporter cell assay. activator, plate reader. activation, % at 9.35 µM. hit rate 1.2% among 300,000; in the data active means activation above about 30%, passing the limit was not always enough; inconclusive means no clear call, values can overlap the other calls;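 further: 0% = neutral control wells and 100% = positive control wells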
PglD inh: blocks C. jejuni PglD acetyltransferase activity; purified PglD enzyme, DTNB colorimetric CoA detection; inhibition, % at 12.5 µM; hit rate 0.098% among 360,000; AID 602405; in the data active means inhibition above about 16%, passing the limit was not always enough; inconclusive means no clear call, values can overlap the other calls
* = called active by the depositor; ? = inconclusive; / = no result; [ ] = dose if it differs, or a comment. Rows were chosen to be rich in hits. Some 2.8% of all compounds tested hit in one or more screens of this group.

SMILES | Yeast UUG start | MITF TRPM1 HTS | miR122 inh | esBAF inh | Wnt bcat act | PglD inh
Cc1ccc(S(=O)(=O)N2C[C@H](O)COC[C@H]3O[C@@H](CC(=O)NCCN4CCCCC4)CC[C@@H]32)cc1 | -11 | / | 4[16.7 µM] | 1 | / | 3
S=C(Nc1ccc(Br)cc1Cl)N1CCCC1 | -20 | 84* | / | ? | 13 | 4
Cc1ccc(NC(=O)CCn2cnc3cc(C)c(C)cc32)cc1 | -21 | 9 | / | 0 | -1 | 4
Cc1cc(C)cc(NC(=O)CCn2cnc3cc(C)c(C)cc32)c1 | / | 10 | / | / | 38* | /
CC(=O)Nc1ccc2nc(CN3CCC(CO)(CCc4ccccc4)CC3)ccc2c1 | 7 | -1 | 162* | / | 2 | 1
CCCN1C(=O)C(=O)N(CC(=O)c2cc(C)n(C3CC3)c2C)C1=O | -7 | 89* | -3 | 29 | 26 | 5
C[C@@H]1CN([C@H](C)CO)C(=O)c2cccc(NC(=O)c3ccc(-c4nccs4)cc3)c2O[C@H]1CN(C)CC1CCCCC1 | 0 | / | -5[16.7 µM] | 8 | / | -1
CCc1ccc(C(=O)NC2CCCCC2)s1 | -10 | 96* | 3 | 31 | / | 6
CC(C)(O)C#Cc1ccc(C(=O)NC2CCCCC2)s1 | / | 48 | / | / | 7 | /
O=C(Nc1ccc2c3c(cccc13)CC2)c1ccccc1 | -37 | / | 4 | 48* | 16 | 0
CN(C)C(=O)C[C@@H]1C[C@@H]2c3cc(NS(=O)(=O)c4ccccc4)ccc3O[C@@H]2[C@@H](CO)O1 | -6 | / | -1[16.7 µM] | -7 | / | 3
CC1=NN(c2nc(-c3ccc(Cl)cc3)cs2)C(=O)C1 | -16 | 14 | -2 | -4 | / | -2

Single records, from the list above.
Shown for O=C(Nc1ccc2c3c(cccc13)CC2)c1ccccc1 = Yeast UUG start = -37; MITF TRPM1 HTS = /; miR122 inh = 4; esBAF inh = 48*; Wnt bcat act = 16; PglD inh = 0
Shown for CC(C)(O)C#Cc1ccc(C(=O)NC2CCCCC2)s1 = Yeast UUG start = /; MITF TRPM1 HTS = 48; miR122 inh = /; esBAF inh = /; Wnt bcat act = 7; PglD inh = /
Shown for CN(C)C(=O)C[C@@H]1C[C@@H]2c3cc(NS(=O)(=O)c4ccccc4)ccc3O[C@@H]2[C@@H](CO)O1 = Yeast UUG start = -6; MITF TRPM1 HTS = /; miR122 inh = -1[16.7 µM]; esBAF inh = -7; Wnt bcat act = /; PglD inh = 3

Sorted by SMILES length (ascending): some entries from above.
SMILES | Yeast UUG start | MITF TRPM1 HTS | miR122 inh | esBAF inh | Wnt bcat act | PglD inh
O=C(Nc1ccc2c3c(cccc13)CC2)c1ccccc1 | -37 | / | 4 | 48* | 16 | 0
CC(=O)Nc1ccc2nc(CN3CCC(CO)(CCc4ccccc4)CC3)ccc2c1 | 7 | -1 | 162* | / | 2 | 1
C[C@@H]1CN([C@H](C)CO)C(=O)c2cccc(NC(=O)c3ccc(-c4nccs4)cc3)c2O[C@H]1CN(C)CC1CCCCC1 | 0 | / | -5[16.7 µM] | 8 | / | -1

(more compounds)
SMILES | Yeast UUG start | MITF TRPM1 HTS | miR122 inh | esBAF inh | Wnt bcat act | PglD inh
Cc1ccc(-c2csc(N3C(=N)SCC3=O)n2)cc1 | / | / | / | / | 50* | /
COCC(=O)Nc1ccc2c(c1)C(=O)N(C)C[C@@H](OC)[C@H](C)CN(Cc1cncnc1)[C@@H](C)CO2 | 9 | / | -1[16.7 µM] | 2 | / | -5
Cc1nn2cc(-c3ccc(Cl)cc3)cnc2c1Cl | -4 | 126* | -3 | 72* | 32* | 0
N/C(=N\OC(=O)CCC1CCCC1)c1ccccn1 | / | 33 | / | / | 52* | /
N/C(=N\OC(=O)COc1ccc2ccccc2c1Br)c1ccccn1 | 29 | ? | 26 | 85* | 44* | 0
N/C(=N\OC(=O)COc1ccc2ccccc2c1Br)c1cccnc1 | / | / | / | / | 3 | /
N/C(=N\OC(=O)COc1ccc(Br)cc1)c1cccnc1 | -10 | 24 | -6 | / | 5 | -3
Cc1ccc(OCC(=O)O/N=C(\N)c2ccccn2)cc1C | -25 | / | -4 | / | 39* | 5
Cc1cc(C)cc(OCC(=O)O/N=C(\N)c2ccccn2)c1 | 4 | 25 | 9 | ? | / | -1
N/C(=N\OC(=O)COc1ccccc1)c1cccnc1 | / | 104* | / | / | 29 | /
C[C@H]1CN([C@@H](C)CO)C(=O)c2cc(NS(=O)(=O)c3ccc(Cl)cc3)ccc2O[C@@H]1CN(C)C(=O)Nc1cccc2ccccc12 | -10 | / | 7[16.7 µM] | -3 | / | 0
N/C(=N\OC(=O)COc1ccccc1)c1ccncc1 | / | 40 | / | / | 3 | /
COc1cccc(OCC(=O)O/N=C(\N)c2ccncc2)c1 | -22 | 32 | 1 | 47* | 7 | -2
CCOc1ccc(C(=O)O/N=C(\N)c2ccccn2)cc1 | -90 | / | -5 | -84 | -4 | 9
N/C(=N\OC(=O)COc1ccccc1)c1ccccn1 | / | 49 | -7 | 49* | 48* | /
N/C(=N\OC(=O)Cc1ccccc1)c1ccccn1 | -8 | 7 | -5 | / | / | 0
Cc1ccc(OCC(=O)O/N=C(\N)c2ccncc2)cc1C | -23 | 79 | -2 | 54* | 7 | 4
CCc1ccc(OCC(=O)O/N=C(\N)c2ccccn2)cc1 | -26 | / | -6 | / | 48* | -2
C[C@@H]1CN([C@H](C)CO)C(=O)c2cccc(NS(=O)(=O)c3ccc(F)cc3)c2O[C@H]1CN(C)Cc1ccncc1 | -13 | / | -4[16.7 µM] | 4 | / | -2
Cc1cccc(OCC(=O)O/N=C(\N)c2ccccn2)c1 | / | 99* | -2 | 38 | 12 | /
C[C@@H]1CN([C@H](C)CO)C(=O)c2cccc(N(C)C)c2O[C@@H]1CN(C)Cc1ccccc1 | -7 | / | 2[16.7 µM] | -4 | / | -2
COc1ccc(N=Nc2ccc(N)nc2N)cc1 | -31 | 67 | -1 | 17 | 41* | -9
COc1ccc(N=Nc2cc(C)ccc2O)cc1 | / | 60 | / | / | 54* | /
COc1ccc(N=Nc2cc(OC)c(N)cc2OC)cc1 | -6 | -4 | -2 | 51* | 2 | -2
CO[C@H]1CN(C)C(=O)c2cc(NS(=O)(=O)c3cn(C)cn3)ccc2OC[C@H](C)N(CC2CC2)C[C@H]1C | / | / | / | -7 | / | -3
C[C@H](CO)N1C[C@H](C)[C@@H](CN(C)C(=O)C2CC2)Oc2ncc(/C=C/c3ccccc3)cc2C1=O | / | / | 18[16.7 µM] | / | / | /
COc1ccc(S(=O)(=O)N(C)C[C@@H]2Oc3ccc(NC(=O)Nc4ccc(F)cc4)cc3C(=O)N([C@@H](C)CO)C[C@@H]2C)cc1 | 16 | / | -3[16.7 µM] | 0 | / | 1
CCCC#Cc1cnc2c(c1)C(=O)N([C@H](C)CO)C[C@@H](C)[C@@H](CN(C)Cc1ccc(F)cc1)O2 | -14 | / | -6[16.7 µM] | -4 | / | 3
C[C@@H]1CN([C@@H](C)CO)C(=O)CCCn2cc(nn2)CO[C@@H]1CN(C)C(=O)c1cc(-c2ccccc2)on1 | / | / | -3[16.7 µM] | 3 | / | /
C[C@@H]1CN([C@H](C)CO)S(=O)(=O)c2ccc(C#Cc3ccccc3)cc2O[C@H]1CN(C)C(=O)CN(C)C | 13 | / | -7[16.7 µM] | -7 | / | -3
O=C(NCc1ccco1)/C(=C/c1cccc(C(F)(F)F)c1)c1nc2ccccc2[nH]1 | -1 | -48 | -8 | 6 | -6 | -10
O=C(NCc1ccco1)/C(=C/c1ccc(C(F)(F)F)cc1)c1nc2ccccc2[nH]1 | / | 14 | / | / | 34* | /
COc1ccc(S(=O)(=O)N(C)C[C@@H]2Oc3ccc(NS(=O)(=O)c4ccc(F)cc4)cc3C(=O)N([C@@H](C)CO)C[C@@H]2C)cc1 | 3 | / | -2[16.7 µM] | 2 | / | 2
COCCNC(=O)c1cc2oc3ccccc3c2n1C | -3 | / | 4 | 72* | 17 | -1
CCOc1ccccc1CNC(=O)c1cc2oc3ccccc3c2n1C | -23 | / | 2 | 7 | -4 | -1
CCS(=O)(=O)NCC[C@@H]1CC[C@@H](NC(=O)C2CCOCC2)[C@@H](CO)O1 | -4 | / | / | -1 | / | 3
CO[C@H]1CN(C)C(=O)c2ccc(NC(=O)c3ccno3)cc2OC[C@@H](C)NC[C@H]1C | / | / | / | 1 | / | -3
C[C@@H]1CN([C@@H](C)CO)C(=O)c2cc(C#CCN(C)C)cnc2O[C@@H]1CN(C)C | 51 | / | 5[16.7 µM] | 1 | / | 1
NNc1nc(-c2ccccc2Cl)nc2ccccc12 | -3 | -8 | 5 | 8 | 4 | -2
NNc1nc(-c2ccccc2Cl)nc2sc3c(c12)CCCC3 | -31 | 50 | 13 | / | 46* | -21
